These results are taken from DBAASP.

What is called MIC is the least concentration at which growth counts as inhibited. A low value points to greater potency.

Values after ≈ are worked out from the molar mass of the structure shown. A value given as a limit tells only on which side of the number the result lay.

Some test systems named below: Bacillus subtilis; Candida albicans; Cryptococcus neoformans; Escherichia coli; Pseudomonas putida; Saccharomyces cerevisiae; Salmonella typhimurium; Serratia marcescens; Staphylococcus aureus; Streptococcus mutans; Streptococcus pneumoniae.
Holding throughout (experiment): ≥ marks a high value that may be exact or a test limit, other limits are often not marked, values filed in µg/mL are converted to µM
Assay [1] has as its system Erwinia amylovora PMV 6076.
Assay [2] relates to Pseudomonas syringae pv. syringae EPS 94.
In assay [3] the test system is Xanthomonas campestris pv. Vesicatoria 2133-2.

On to `CC[C@H](C)[C@H](NC(=O)CNC(=O)[C@H](CC(C)C)NC(=O)[C@H](Cc1ccc(O)cc1)NC(=O)[C@H](CCCCN)NC(=O)[C@H](CC(C)C)NC(=O)[C@@H](NC(=O)[C@H](CCCCN)NC(=O)[C@H](CCCCN)NC(=O)[C@H](Cc1ccccc1)NC(=O)[C@H](CC(C)C)NC(=O)[C@H](CCCCN)NC(=O)[C@@H](N)CCCCN)[C@@H](C)CC)C(=O)NCC(=O)N[C@@H](C)C(=O)N[C@H](C(=O)N[C@@H](CC(C)C)C(=O)N[C@@H](CCCCN)C(=O)N[C@H](C(=O)N[C@@H](CC(C)C)C(=O)N[C@H](C(=O)N[C@H](C(=O)NCC(=O)N[C@@H](CC(C)C)C(=O)N[C@@H](CCCCN)C(=O)N[C@@H](CC(=O)O)C(=O)N[C@@H](CCC(=O)O)C(=O)N[C@@H](CC(C)C)C(=O)O)[C@@H](C)O)[C@@H](C)O)C(C)C)C(C)C` [KKLFKKILKYLGIGAVLKVLTTGLKDEL], for which the MIC in assay [1] was 6.12 µM (≈ 19.2 µg/mL); in assay [2], 3.54 µM (≈ 11.1 µg/mL); in assay [3], 3.54 µM (≈ 11.1 µg/mL).
For `CC(C)C[C@H](NC(=O)CNC(=O)[C@H](C)NC(=O)[C@@H](N)CCCN=C(N)N)C(=O)N[C@@H](CCC(N)=O)C(=O)N[C@@H](Cc1ccccc1)C(=O)N1CCC[C@H]1C(=O)N[C@H](C(=O)NCC(=O)N[C@@H](CCCN=C(N)N)C(=O)N[C@H](C(=O)N[C@@H](Cc1cnc[nH]1)C(=O)N[C@@H](CCCN=C(N)N)C(=O)N[C@@H](CC(C)C)C(=O)N[C@@H](CC(C)C)C(=O)N[C@@H](CCCN=C(N)N)C(=O)O)C(C)C)C(C)C` [RAGLQFPVGRVHRLLR], the minimal inhibitory concentration (MIC) against Bacillus subtilis was 8.53 µM (≈ 16 µg/mL); in the assay with Candida albicans, 34.1 µM (≈ 64 µg/mL); with Cryptococcus neoformans, at least 34.1 µM; against Escherichia coli, 8.53 µM (≈ 16 µg/mL); with Pseudomonas putida, 17.1 µM (≈ 32 µg/mL); with Saccharomyces cerevisiae it was at least 68.3 µM. Also, the MIC worked out at 8.53 µM (≈ 16 µg/mL) in the assay with Salmonella typhimurium; 17.1 µM (≈ 32 µg/mL) against Serratia marcescens; 34.1 µM (≈ 64 µg/mL) against Staphylococcus aureus; 17.1 µM (≈ 32 µg/mL) in the assay with Streptococcus mutans; 17.1 µM (≈ 32 µg/mL) in the assay on Streptococcus pneumoniae.
